# Measured affinities in a library of Ab-14 light chain variants

Target peptide (SARS-CoV-2 spike, HR2 region): PDVDLGDISGINAS

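The variants were designed computationally from a first round of random CDR variants and then made and measured. Their group label is 14L_GP_Gen (GP: Gaussian process model; Gen: genetic algorithm; a sequence that several methods proposed may carry one label only). In AlphaSeq, yeast of one mating type display the scFv and yeast of the other type display the target. Pairs that bind mate more often; barcode pairs of the diploids are counted by sequencing. Read counts were normalised to the haploid input and turned into Kd by a linear fit to BCL2-family pairs of known affinity, for each replicate. Mating was done six times.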

Ab-14 is the parent antibody, in scFv form: VH, then three GGGGS repeats, then VL. The heavy chain is unchanged in all variants.
VH: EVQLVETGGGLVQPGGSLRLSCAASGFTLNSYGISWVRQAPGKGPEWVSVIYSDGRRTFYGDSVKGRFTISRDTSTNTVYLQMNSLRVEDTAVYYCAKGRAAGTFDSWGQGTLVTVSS
VL: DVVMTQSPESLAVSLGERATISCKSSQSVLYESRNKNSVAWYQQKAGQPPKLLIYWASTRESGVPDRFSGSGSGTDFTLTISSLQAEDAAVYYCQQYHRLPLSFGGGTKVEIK

Each variant is given by its three light chain CDRs, as the data file delimits them; those of the parent are KSSQSVLYESRNKNSVA, WASTRES, QQYHRLPLS.
Values are log10 of the apparent Kd in nM; lower means stronger binding.
"nd" marks a missing value. The strain was present, yet no cells mated with the target were sequenced in that replicate, which points to weak or no binding.
In the paper, a design with two or fewer of six values counts as a poor binder.

| CDR-L1 | CDR-L2 | CDR-L3 | log10 Kd, replicates | control signals |
|---|---|---|---|---|
| KLQQSELYESRNKNSVA | NASTRYS | QQYHRLPLS | -0.11 / -0.32 / -0.29 / -0.35 / -0.20 / 0.00 | 2/18 (2.73) |
| KLSQSVMYESRNKNSVA | GASTRES | QQYHRLPLS | 0.10 / 0.64 / 0.43 / 0.38 / 0.19 / 0.31 | 0/18 |
| KMSQSWLYESRNKNSVA | NASQRLS | QQYHRLPLS | 0.02 / -0.05 / 0.01 / -0.23 / 0.06 / 0.15 | 1/18 (2.57) |
| KLSQSWLYESRNKNSVA | NASTRET | QQYHRLPLS | 0.02 / -0.05 / -0.55 / -0.33 / -0.30 / 0.03 | 0/18 |
| KLSQSVLYEERNKNNVA | NASTRES | QQYHRLPLS | -0.02 / -0.15 / -0.12 / -0.24 / -0.29 / 0.00 | 0/18 |
| KLSQSYLYESRNKNAVA | NASQRES | QQYHRLPLS | 1.17 / 0.85 / 0.71 / 0.76 / 0.84 / 0.89 | 1/18 (3.32) |
| KLPQSVLYESRNKNSVA | QASTRLS | QQYHRLPLS | 0.50 / 0.20 / 0.27 / 0.19 / 0.16 / 0.43 | 1/18 (2.15) |
| KLSPSVLYESRNKNSVA | EASTREQ | QQYHRLPLS | -0.23 / -0.36 / -0.57 / -0.61 / -0.55 / -0.30 | 2/18 (3.46) |
| KLSGSELYESRNKNSVA | GASTRES | QQYHRLPLS | -0.14 / -0.49 / -0.47 / -0.56 / -0.45 / -0.37 | 2/18 (2.95) |
| KLSQSMLYESRNPNSVA | NASTRES | QQYHRLPLS | nd / nd / nd / nd / nd / nd | 0/18 |
| KLQQSDLYESRNKNSVA | EASTRLS | QQYHRLPLS | 1.23 / 0.30 / 0.69 / 0.91 / 0.03 / 1.17 | 0/18 |
| KVSQSVLYEERNKNSVA | NGSTRES | QQYHRLPLS | -0.06 / -0.58 / -0.42 / -0.55 / -0.52 / -0.31 | 1/18 (2.04) |
| KLSQSQGYESRNKNSVA | HASTRES | QQYHRLPLS | 0.80 / 0.51 / 0.31 / 0.59 / 0.24 / 0.49 | 0/18 |
| KFSQSYLYESRNKNSVA | HASTRES | QQYHRLPLS | 0.41 / 0.34 / 0.17 / 0.20 / 0.38 / 0.37 | 1/18 (3.41) |
| KLMQSFLYESRNKNSVA | NASQRES | QQYHRLPLS | 0.02 / -0.13 / -0.08 / -0.15 / -0.21 / -0.07 | 3/18 (3.30) |
| KVSQSHLYESRNKNSVA | NASTREV | QQYHRLPLS | 0.80 / 0.68 / 0.50 / 0.63 / 0.88 / 0.69 | 0/18 |
| KFEQSQLYESRNKNSVA | NASTRES | QQYHRLPLS | 0.55 / 0.85 / 0.23 / 0.20 / 0.09 / -0.12 | 2/18 (2.18) |
| KLPQSVLYESRNKNSVA | QASTRES | QQYHRLPLS | -0.08 / -0.31 / -0.39 / -0.45 / -0.39 / -0.22 | 2/18 (3.78) |
| KLEQSVLGESRNKNSVA | NASTRES | QQYHRLPLS | -0.06 / -0.01 / -0.44 / -0.34 / -0.39 / -0.39 | 0/18 |
| KLSGSVLYESRNKNAVA | EASTRES | QQYHRLPLS | -0.16 / -0.20 / -0.14 / -0.50 / -0.40 / 0.05 | 0/18 |
| KLAQSQLYESRNKNSVA | NASTRES | QQYHRLPLS | 0.51 / 0.97 / 0.33 / 1.71 / 0.63 / 1.06 | 0/18 |
| KLQQSVLYESRNKNSVA | NASTRLE | QQYHRLPLS | 0.01 / -0.01 / 0.03 / 0.01 / 0.01 / -0.08 | 0/18 |
| KLSQSVLYESRNKNSVA | NASTRES | QCYHRLPLS | 1.24 / 1.00 / 0.92 / 0.92 / 0.89 / 1.38 | 0/18 |
| KLQQSVLYESRNKNSVA | NASQRCS | QQYHRLPLS | 0.18 / 0.06 / -0.12 / -0.12 / -0.18 / 0.03 | 5/18 (3.49) |
| YISQSVLYEDRNKNSVA | NASTRMS | QQYHRLPLS | -0.14 / -0.26 / -0.25 / -0.49 / -0.20 / -0.15 | 2/18 (2.41) |
| KVQQSNLYESRNKNSVA | DASTRES | QQYHRLPLS | -0.21 / 0.07 / -0.24 / -0.06 / 0.07 / 0.19 | 1/18 (2.89) |
| KLSQSVLYEQRNKNSVA | DASTRES | QQYHRLPLS | -0.28 / -0.55 / -0.63 / -0.65 / -0.62 / -0.53 | 2/18 (3.76) |
| KLSQSVLYESRNANNVA | HASTRES | QQYHRLPLS | -0.08 / -0.08 / -0.22 / -0.27 / -0.35 / -0.14 | 1/18 (2.03) |
| KLPQSQLYESRNKNSVA | EASTRES | QQYHRLPLS | 0.18 / 0.14 / -0.11 / -0.15 / -0.31 / 0.24 | 0/18 |
| KLQQSVLYESRNKNSVA | NASTREW | QQYHRLPLS | -0.09 / -0.21 / -0.25 / -0.27 / -0.45 / -0.18 | 0/18 |
| KLQQSVPYESRNKNSVA | EASTRES | QQYHRLPLS | 0.01 / -0.42 / -0.32 / -0.25 / -0.57 / 0.12 | 0/18 |
| KVSQSQLYESRNKNSVA | NASLRES | QQYHRLPLS | -0.11 / -0.27 / -0.07 / -0.29 / 0.03 / -0.32 | 3/18 (3.38) |
| KLSQSYLYESRNKNSVA | DASTRES | QQYHRLPLS | nd / nd / nd / 1.19 / 1.80 / 2.41 | 1/18 (1.67) |
| KLPQSELYESRMKNSVA | NASQRES | QQYHRLPLS | 0.00 / -0.20 / -0.28 / -0.45 / -0.57 / -0.26 | 1/18 (1.81) |
| KVSQSVLYGSRNKNSVA | EASTRES | QQYHRLPLS | -0.06 / -0.16 / -0.06 / -0.24 / -0.42 / -0.03 | 2/18 (2.42) |
| KLDQSQLYESRNKNSVA | QASTRES | QQYHRLPLS | -0.08 / -0.11 / -0.32 / -0.35 / -0.23 / -0.24 | 0/18 |
| KLSGSMLYESRNKNSVA | GASTRES | QQYHRLPLS | -0.30 / -0.49 / -0.46 / -0.62 / -0.63 / -0.35 | 2/18 (3.65) |
| KVSQSVLYEDRNKNSVA | EASTRES | QQYHRLPLS | 0.47 / 0.20 / 0.29 / 0.24 / 0.27 / 0.47 | 0/18 |
| VLSQSELYESRNKNSVA | NASTRES | QQYHRLPLS | -0.15 / 0.11 / -0.22 / -0.16 / -0.11 / 0.12 | 0/18 |
| KSSQSVLYESRNKNSVA | EASTRMS | QQYHRLPLS | 0.81 / 0.73 / 0.89 / 0.89 / 0.87 / 0.81 | 0/18 |
| KLSQSVLYEERNKNSVA | HASTRLS | QQYHRLPLS | -0.31 / -0.16 / -0.39 / -0.35 / -0.36 / -0.20 | 1/18 (2.04) |
| KLQQSNGYESRNKNSVA | NASTRES | QQYHRLPLS | -0.15 / -0.29 / -0.52 / -0.37 / -0.42 / -0.07 | 0/18 |
| KLEQSQLYESRNKNSVA | NASTRES | QQYHRLPLS | -0.36 / -0.56 / -0.60 / -0.70 / -0.42 / -0.38 | 2/18 (3.26) |
| KLSQSVLYESRNKNSVA | EAKTRES | QQYHRLPLS | -0.12 / -0.15 / -0.52 / -0.51 / -0.33 / -0.22 | 0/18 |

Extract of 3 entries:

CDR-L1	CDR-L2	CDR-L3	log10 Kd, replicates	control signals
VLSQSELYESRNKNSVA	NASTRES	QQYHRLPLS	-0.15 / 0.11 / -0.22 / -0.16 / -0.11 / 0.12	0/18
KLDQSQLYESRNKNSVA	QASTRES	QQYHRLPLS	-0.08 / -0.11 / -0.32 / -0.35 / -0.23 / -0.24	0/18
KLSPSVLYESRNKNSVA	EASTREQ	QQYHRLPLS	-0.23 / -0.36 / -0.57 / -0.61 / -0.55 / -0.30	2/18 (3.46)

Values of this round are not directly comparable with the first-round values of the same sequences.
Background: pairings of all light chain designs with three empty control strains gave a value in 4% of cases (median 2.64, 5th percentile 1.59). Values in that range, when seen in few replicates, are hard to tell from nonspecific mating. The control count says in how many pairings with the empty strains this scFv gave a signal, with their mean in brackets.
The parent sequence was in this pool as ten entries: three were never detected, three once, and four in most replicates, with averages from 0.34 to 2.37.

The measurements come from Li et al. 2023 (doi:10.1038/s41467-023-39022-2) through the FLAb antibody collection.